Test results as given in US20120046329A1, “MODULATORS OF NOD1 AND NOD2 SIGNALING, METHODS OF IDENTIFYING MODULATORS OF NOD1 AND NOD2 SIGNALING, AND USES THEREOF” (Sanford-Burnham Medical Research Institute, priority 2010, published 2012).

Target: T1, NOD1 (Homo sapiens, UniProt Q9Y239)
T1 sequence (Q9Y239 1-953): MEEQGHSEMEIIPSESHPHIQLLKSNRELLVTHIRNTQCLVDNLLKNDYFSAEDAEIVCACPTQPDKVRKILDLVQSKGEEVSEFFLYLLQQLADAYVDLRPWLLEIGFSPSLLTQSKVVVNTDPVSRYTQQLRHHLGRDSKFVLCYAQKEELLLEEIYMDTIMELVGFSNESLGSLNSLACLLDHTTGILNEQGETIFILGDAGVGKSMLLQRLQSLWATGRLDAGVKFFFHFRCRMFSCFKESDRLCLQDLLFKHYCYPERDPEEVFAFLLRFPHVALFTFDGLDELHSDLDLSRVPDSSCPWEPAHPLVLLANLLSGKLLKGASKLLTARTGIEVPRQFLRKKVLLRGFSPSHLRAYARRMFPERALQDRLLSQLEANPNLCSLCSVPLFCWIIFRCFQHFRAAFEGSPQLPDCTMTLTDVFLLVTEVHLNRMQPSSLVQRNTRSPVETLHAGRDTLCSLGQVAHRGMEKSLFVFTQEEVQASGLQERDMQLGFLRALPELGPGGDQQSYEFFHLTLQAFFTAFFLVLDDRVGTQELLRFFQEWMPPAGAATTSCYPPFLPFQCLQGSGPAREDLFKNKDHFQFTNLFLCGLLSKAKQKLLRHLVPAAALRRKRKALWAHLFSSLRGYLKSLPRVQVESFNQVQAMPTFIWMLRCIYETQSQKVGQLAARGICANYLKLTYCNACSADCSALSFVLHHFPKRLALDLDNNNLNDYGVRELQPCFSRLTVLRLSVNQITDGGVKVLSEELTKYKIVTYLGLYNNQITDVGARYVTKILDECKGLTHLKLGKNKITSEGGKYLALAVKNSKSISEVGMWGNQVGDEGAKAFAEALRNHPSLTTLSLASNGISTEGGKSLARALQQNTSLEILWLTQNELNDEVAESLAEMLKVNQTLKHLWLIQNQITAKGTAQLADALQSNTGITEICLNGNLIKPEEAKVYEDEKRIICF
Experiment: NOD1 NF-κB luciferase reporter assay, γ-tri-DAP-stimulated HEK293T cells
Conditions: read-out: (NOD1) IC50

Cc1ccc(S(=O)(=O)n2c(N)nc3ccccc32)cc1 [Compound 1]
IC50: 560 ± 40 nM
